Ab-91 heavy chain CDR variants: yeast mating affinities

Values reported by Engelhart et al. 2022, doi:10.1038/s41597-022-01779-4 (FLAb copy).

Antigen: PDVDLGDISGINAS, a 14-residue peptide of the SARS-CoV-2 spike HR2 region.

The variants keep the light chain, the linker and the frameworks of Ab-91 (scFv order VL, a (GGGGS)3 linker, VH).
VL: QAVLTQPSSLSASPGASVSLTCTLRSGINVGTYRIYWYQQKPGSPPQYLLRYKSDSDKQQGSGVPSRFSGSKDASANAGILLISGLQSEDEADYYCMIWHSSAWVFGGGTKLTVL
VH: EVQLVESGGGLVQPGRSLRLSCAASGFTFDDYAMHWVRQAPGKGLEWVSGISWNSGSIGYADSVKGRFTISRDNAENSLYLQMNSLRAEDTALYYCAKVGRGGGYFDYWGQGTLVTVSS

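The parent was found by panning a naive human phage display library on the peptide. The library (AAYL51) carries one to three amino acid substitutions per variant, with no insertions or deletions. The scFvs were displayed on barcoded MATa yeast, the peptide on MATalpha yeast. Binding brings cells together so that they mate, and sequencing counts the barcode pairs among the diploids. Read counts were normalised to the haploid input and turned into Kd by a linear fit to BCL2-family pairs of known affinity, for each replicate. Mating was done three times.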

The parent's heavy chain CDRs are GFTFDDYAMH, GISWNSGSIGYADSVK, VGRGGGYFDY; each variant's own CDRs replace them letter for letter.
The read-out is the apparent dissociation constant on a log10 scale (nM): the lower, the stronger.
"nd" means that the variant was in the library but no mating with the target was seen in that replicate; the authors take this as a sign of poor binding, and no number exists.
Parent in this assay: reference entry 1.86, copy in this library 0.88.

CDR-H1,CDR-H2,CDR-H3,log10 Kd (nM) by replicate
GMTFDDYAMK,GISWNSGTIGYADSVK,VGRGGGYFDY,nd / nd / nd
GFTFDDYAMH,GASWNSGSIGYADSVK,VGRGGGYYDG,nd / nd / nd
GFTFDDYAMH,EISWNSGPISYADSVK,VGRGGGYFDY,4.59 / 5.37 / nd
GFVFDDGAMH,GISWNSGSIGYADSVK,VGRGGGHFDY,nd / nd / nd
DFTFHDYAMH,GISTNSGSIGYADSVK,VGRGGGYFDY,1.14 / 1.83 / 1.01
GFTRDDYAMH,GISWFSGSIGYVDSVK,VGRGGGYFDY,nd / nd / nd
GFTFDDYAMH,GISWNSGSIGYADSVK,VGRGYLYFEY,1.39 / 1.31 / 1.02
NFTFDDYAQH,GISWNSGSIGYADSVI,VGRGGGYFDY,2.49 / 2.95 / 3.05
RFTFDDYAMH,GISWNSGSRGYADSVK,VGRMGGYFDY,5.12 / nd / nd
GFTFDDYAMH,GISWNSGSLGAMDSVK,VGRGGGYFDY,3.75 / 3.22 / nd
GFTFRDYAMR,GISWPSGSIGYADSVK,VGRGGGYFDY,4.34 / 4.34 / nd
GFTFDDYAMH,GISWNSGSHGYADSVK,VGRGGGYEDY,nd / nd / nd
GFTFDDYALH,GISWNSGSIGYADSVQ,VGREGGYFDY,nd / 5.36 / nd
GFTFDDYAMH,GHSWESGSIGYADSVK,VGPGGGYFDY,nd / nd / nd
GFTKDDEAMH,GISWNSGSIGYADSVK,VGRGGGYHDY,4.34 / nd / nd
GFTFDDYAMH,GISWNSGSIGTADSSK,VGRDGGYFDY,5.14 / nd / nd
GFTFDDYAMH,GISWNSGSDGIADSVK,VGRGGGYFDS,2.90 / 4.45 / nd
GFTFDDYAMH,GISWRYGSIGYADSVK,VFRGGGYFDY,nd / nd / nd
GFTFDDYAMY,GISWNSGSIGYADSVK,GGRGGGFFDY,nd / nd / nd
GFTFDDYAPH,GISWNSGSIGYADSVK,LGRGHGYFDY,nd / 5.88 / nd
GFTFDDYAMH,GISQNSGSIGYADSVK,AGRGGGYFNY,2.66 / nd / nd
GFTFDDYAMH,GISWNSGSIGYADSVK,VGREGSYFDY,3.75 / 5.03 / 4.11
GFTFDDYAMH,FISWNSFSIGYADSVK,VGRGGGVFDY,nd / nd / nd
GFTFDMYAMH,GISWNSGSIGYADSVK,FGRGYGYFDY,2.51 / 2.59 / 2.80
GFTFDDYAMH,GISWNSGSIGYADSVW,VGRCGGYFDY,nd / nd / nd
GFTFDDYAMH,GISWNSGSIGYAISSK,VGRGGGYDDY,nd / nd / nd
GFTFDDGAMH,GISWNSGSIGYADSVK,WGRGGFYFDY,nd / nd / nd
GFTFDDYAMH,GIDWNSGSQGYADSVK,VGRGGGYFDY,nd / nd / nd
GFMFDDYAMH,GISWCSGSIGYACSVK,VGRGGGYFDY,4.05 / 4.19 / 4.17
GFTFDDYAMH,GISWNSGSIGYADSVK,VGRGGRDFDF,nd / nd / nd
GFTFDDYAMD,GISWNDGSIGYASSVK,VGRGGGYFDY,nd / nd / nd
GFTFDDYAMH,GISWNSGLQGYADSVK,VKRGGGYFDY,nd / nd / nd
GQTFDDAAMH,GISWNSGSIGYADSVK,VGRGGGYFDM,2.98 / 2.91 / 3.10
GFTFDDYAMH,GGSWNSGSIGYADSVK,VGRGGGHFDY,4.85 / 4.70 / nd
GFTFDDYAMH,GIDWNSGSIGIAPSVK,VGRGGGYFDY,nd / 2.64 / nd
GFTFDDYAMH,GISWNSGSIGYCDSVK,VGRGWGYFDA,nd / nd / nd
GFTFDDYAMH,GASWNSGSIGYHDGVK,VGRGGGYFDY,nd / 4.95 / nd
GLTFMDYAMH,GISWNSGSIGYADSVK,VGRGGGYYDY,nd / nd / nd
GFTFDDYAMH,GIYWNSGSIGYEASVK,VGRGGGYFDY,nd / nd / nd
CFTADDYAMH,GISWNSGSIGYADSVK,VERGGGYFDY,nd / 5.66 / nd
GFTFDYYAMH,GISWNSGSIYYHDSVK,VGRGGGYFDY,nd / nd / 1.51
GETFDDYAMH,GISWNSGSIGYADSVD,VGRGGGYFDY,3.83 / 4.27 / nd
GFTFDDYAMH,GISWNSGRIGYADSVK,VGRPGGYFQY,nd / nd / nd
GFTFDDYAMH,GISWNSGSIGYLDSVK,VHRGGGYFDP,nd / 4.67 / 4.69
GFTFDDYAMH,GISWNSGSIVYADSVK,VGWGGCYFDY,3.23 / nd / nd
GFTFDDYAMH,GIWWNSGSIPFADSVK,VGRGGGYFDY,nd / nd / nd
GVTFDDYAMH,GIYWNSGSIGYADSVK,VGRGGEYFDY,nd / 4.93 / nd
GFTFDDYFMH,GISWNSGSIGSADSVW,VGRGGGYFDY,nd / nd / nd
GFTFDDYAMH,GIVWNSGSIGDADSVK,VGRGGGYKDY,nd / nd / nd

Nonspecific signal, from three strains lacking the peptide, appeared in 21% of pairings of library AAYL51, centred on 4.54 (5% of these signals below 3.26); values are not corrected for it.